Results as given in US8067628B2, “Water-soluble binuclear nitrosyl iron complexes with natural aliphatic thiolyls possessing cytotoxic, apoptotic and no-donor activity” (priority 2008, dated 2011).

Format: physicochemical
Procedure: Di-μ-cystamine tetranitrosyl di-iron sulphate (Fe2S3N6C4H19O10.5) (I) was prepared by reacting iron sulphate (II) with cystamine hydrochloride solution. Distilled water used in the synthesis required preliminary preparation to remove oxygen dissolved therein. To this end, a flow of inert gas (argon or nitrogen) was passed through a flask with distilled water for 30 minutes. 0.84 grams (3 mmol) iron sulphate heptahydrate were dissolved in 12 ml prepared distilled water. To this solution, 0.40 g (3.5 mmol) cystamine hydrochloride dissolved in 8 ml water was added to this solution. Nitrogen monoxide flow prepared according to the technique [Yu. V. Karyakin and I. I. Angeov. Chistiye khimicheskiye veshchestva (Pure chemical substances), Moscow: Khimiya publishing house, 1974, 23] was passed through the prepared solution for 1 to 1.5 hours at ˜40° C. until crystals were formed in the solution. Reaction mixture was then allowed to stand at 6 to 8° C. for 15 to 20 hrs; a formed brown-red fine crystalline precipitate was filtered off and dried in air for 24 hours. Yield was […] (16.5%).

## Di-μ-cystamine tetranitrosyl di-iron sulphate [complex I]
  solubility in DMSO: readily soluble
  solubility in methanol: less soluble
  solubility in other organic solvents: insoluble
  solubility in water: readily soluble
